Measurements reported in PubChem BioAssay AID2100 (National Center for Advancing Translational Sciences (NCATS), 2009).
Only a part is listed here, and it is no random draw. Inconclusive results are not listed. Some salts and complexes are drawn in separate pieces, as the source files them; their charges need not balance. Activity calls are given as the source filed them. Calls come from the whole dose curve; as a rule, active = well fitted inhibition curve with a large enough effect; inconclusive = small, poorly fitted or top-dose-only effect, or another doubt; inactive = no such curve, though single readings can be large or run the other way.

The molecules below were run against Lysosomal alpha-glucosidase (Homo sapiens) (UniProt P10253) (assay: qHTS Assay for Inhibitors and Activators of Human alpha-Glucosidase Cleavage of Glycogen). Conditions: recombinant GAA, glycogen substrate, Amplex Red glucose oxidase fluorescence; series mostly up to 76.4 µM; activity change, negative = inhibition: at the top concentration.
Text: NIH Chemical Genomics Center [NCGC] NIH Molecular Libraries Probe Production Centers Network [MLPCN] MLPCN Grant: R03 MH084841-01 Assay Submitter (PI): Wei Zheng NCGC Assay Overview: Alpha-glucosidase is responsible for the hydrolysis of terminal, non-reducing 1,4-linked alpha-D-glucose residues, which releases alpha-D-glucose. It is a lysosomal hydrolase that is required for the degradation of a small percentage (1-3%) of cellular glycogen in humans. Deficiency of this enzyme results in glycogen-storage disease type II (GSDII), also referred to as Pompe disease, an autosomal recessive disorder. Structurally normal glycogen is accumulated in the lysosomes and cytoplasm in affected patients, primarily in muscle tissues. Excessive glycogen storage within lysosomes may interrupt normal functioning of other organelles and leads to cellular injury. In turn, this leads to enlargement and dysfunction of the entire organ involved (eg: cardiomyopathy and muscle weakness). It has been reported that the improper folding and trafficking of alpha-glucosidase resulting from genetic mutations may account for a significant number of Pompe patients. […] We optimized this alpha-glucosidase assay in 1536-well plate format for identification of novel small molecule inhibitors or activators with structures other than the sugar analogs in order to develop new pharmacological chaperones. Previous assays of alpha-Glucosidase have utilized a non-natural fluorescent substrate to probe enzyme activity. The present assay measures enzyme activity on glycogen using a coupled-assay system to glucose oxidase.
NCGC Assay Protocol Summary: This is an enzyme assay using glycogen from bovine liver (Sigma catalog #: G0885) as the substrate and recombinant human alpha-glucosidase as the enzyme preparation. Upon hydrolysis of the substrate, the glucose product can be detected using the Amplex Red Glucose Oxidase Assay Kit (Invitrogen catalog #: A22189). The product of this reaction can be read with a fluorescence plate reader with an excitation at 573 nm and an emission at 610 nm. Data were normalized to the controls for basal activity (without enzyme) and 100% activity (with enzyme). The AC50 values were determined from concentration-response data modeled with the standard Hill equation. Assay buffer for enzyme reaction: 50 mM citric acid (titrated with potassium phosphate to pH 5.0), 0.01% Tween-20 (pH 5.0 is an optimal condition for this enzyme assay) Assay buffer for Amplex Red reaction: Tris-HCl, pH 7.5 1536-well assay protocol for the alpha-glucosidase assay: (1) Add 2 ul/well alpha-glucosidase enzyme solution (4 nM final) (2) Add 23 nL compounds in DMSO solution. The final titration was 0.7 nM to 77 uM. (3) Add 1 ul of glycogen substrate solution (30 ug) (4) Incubate at 37 C for 40 min (5) Add 2 ul tris-HCl buffer with Amplex Red reagents (6) Incubate 45 min at room temperature. (7) Detect the assay plate in a ViewLux plate reader (PerkinElmer) with Ex=573 nm and Em=610nm. Keywords: Alpha-glucosidase, Pompe Disease, pharmacological chaperone, chaperone therapy, high throughput screening, alpha-glucosidase inhibitor, MLSMR, MLSCN, NIH Roadmap, qHTS and NCGC
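Note: the screen sought inhibitors and activators.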
Potency is the fitted concentration of half-maximal effect.
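Throughout, for activity change, negative = inhibition: 0% = full enzyme reaction and -100% = no-enzyme basal signal.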

SMILES	activity change, negative = inhibition	Potency
N#Cc1ccc(C(=O)NCC2(N3CCCCC3)CCCCC2)cc1	inactive: 2.59%	
O=C(NCC1(N2CCOCC2)CCCCC1)c1ccccc1[N+](=O)[O-]	inactive: 19% [at 76.3 µM]	
O=C(NCC1(N2CCOCC2)CCCCC1)c1ccc([N+](=O)[O-])cc1	inactive: 0.391% [at 76.3 µM]	
CC(C)(C)OC(=O)N1CCC(N(C(=O)c2ccccc2)c2ccc(Cl)cc2)CC1	inactive: -8.72%	
CCOC(=O)C(CC)C1=NC(C)(C)Cc2ccccc21.O=[N+]([O-])c1cc([N+](=O)[O-])c(O)c([N+](=O)[O-])c1 (stereo not drawn)	inactive: 6.14%	
CN(C)C1(CNC(=O)c2cccc(C#N)c2)CCCCC1	inactive: 2.69%	
O=C(NCC1(N2CCOCC2)CCCCC1)c1ccccc1	inactive: -15.6% [at 76.3 µM]	
CCCN1CCC(Nc2cc(OC)cc(OC)c2)CC1	inactive: 1.17% [at 76.3 µM]	
c1ccc(CN2CCC(Nc3ccccc3)CC2)cc1	inactive: 5.3%	
COc1ccc(C(=O)NCC2(N3CCOCC3)CCCCC2)cc1OC	inactive: -1.47%	
CCOC(=O)N1CCC(Nc2ccc(C)cc2)CC1	inactive: 2.16% [at 76.3 µM]	
N/C(=N\O)c1c(N)no[n+]1[O-]	inactive: 0.688%	
O=C(O)c1cccc(Nc2c([N+](=O)[O-])cc([N+](=O)[O-])cc2[N+](=O)[O-])c1	inactive: 3.76%	
O=C(OC1CN2CCC1CC2)C1c2ccccc2C=Cc2ccccc21 (stereo not drawn)	inactive: -5.9%	
CN1CCC(Nc2ccc(F)c(Cl)c2)CC1	inactive: 1.97% [at 76.3 µM]	
CCOc1ncccc1C(=O)NCC1(N2CCOCC2)CCCCC1	inactive: -1.92%	
O=C(O)C1(Nc2ccccc2)CCN(Cc2ccccc2)CC1	inactive: -5.48%	
CC(C)(C)OC(=O)N1CCC(Nc2ccccc2)CC1	inactive: 5.39%	
CCCOc1ccc(C(=O)NCC2(N(C)C)CCCCC2)cc1	inactive: 5.27%	
COc1cc(OC)cc(C(=O)NCC2(N3CCOCC3)CCCCC2)c1	inactive: 1.65%	
COc1cc(C(=O)NCC2(N3CCOCC3)CCCCC2)cc(OC)c1OC	inactive: 15.6% [at 76.3 µM]	
COc1cccc(C(=O)N(c2cc(C)cc(C)c2)C2CCN(C(=O)OC(C)(C)C)CC2)c1	inactive: -10.4%	
CCC(CO)(C(=O)OC1CN2CCC1CC2)c1ccccc1 (stereo not drawn)	inactive: 5.08%	

SMILES	activity change, negative = inhibition	Potency
CN1CCC(Nc2ccc(Cl)cc2)CC1	inactive: -11.5% [at 76.3 µM]	
CCCOc1ccc(C)cc1CN(CCCl)CCCl	inactive: 4.03%	
CN(C)C1(CNC(=O)c2ccc(C(C)(C)C)cc2)CCCCC1	inactive: -3.54% [at 76.3 µM]	
COc1cc(OC)cc(C(=O)NCC2(N3CCCCC3)CCCCC2)c1	inactive: 11.1%	
Fc1ccccc1NC1CCN(Cc2ccccc2)CC1	inactive: 6.61%	
CCN1CCC(Nc2cccc(F)c2)CC1	inactive: -8.49%	
Cc1ccccc1C(=O)NCC1(N(C)C)CCCCC1	inactive: -4.86% [at 76.3 µM]	
CN(C)c1ccc(C(=O)NCC2(N3CCCCC3)CCCCC2)cc1	inactive: -5.91%	
CC(C)(C)c1ccc(C(=O)NCC2(N3CCOCC3)CCCCC2)cc1	inactive: 14.6% [at 76.3 µM]	
O=C(NCC1(N2CCOCC2)CCCCC1)c1ccc(Cl)cc1	inactive: 6.15% [at 76.3 µM]	
CCOc1ccc(C)cc1CN(CCCl)CCCl	inactive: 3.2%	
COc1ccccc1C(=O)NCC1(N2CCOCC2)CCCCC1	inactive: 11.3% [at 76.3 µM]	
COc1ccc(NC2CCN(CCc3ccccc3)CC2)c(OC)c1		active: 7.88 µM
CCOC(=O)N1CCC(Nc2ccc(F)cc2)CC1	inactive: -13.5% [at 76.3 µM]	
O=C(NCC1(N2CCCCC2)CCCCC1)c1ccc(F)cc1	inactive: 4.5%	
Cc1ccc(OCC(C)C)c(CN(CCCl)CCCl)c1	inactive: 0.0893%	
COc1cc(C(=O)NCC2(N(C)C)CCCCC2)ccc1OC(F)F	inactive: 4.02%	
CC(C)(C)OC(=O)N1CCC(N(C(=O)c2ccccc2)c2ccc(F)cc2)CC1	inactive: 0.404%	
COc1ccc(C(=O)NCC2(N3CCCCC3)CCCCC2)c(OC)c1OC	inactive: -1.74%	
COc1ccc(C(=O)NCC2(N3CCCCC3)CCCCC2)cc1	inactive: 8.12%	
O=C(NCC1(N2CCCCC2)CCCCC1)c1ccc(=O)[nH]c1	inactive: -4.89% [at 76.3 µM]	
Cc1cc(C)cc(N(C(=O)c2ccccc2)C2CCN(C(=O)OC(C)(C)C)CC2)c1	inactive: 0.569%	
O=C(NCC1(N2CCOCC2)CCCCC1)c1cc2ccccc2o1	inactive: 12.9%	

SMILES	activity change, negative = inhibition	Potency
O=C(OC1CN2CCC1CC2)C1c2ccccc2Oc2ccccc21 (stereo not drawn)	inactive: -20.7%	
N#CC1(Nc2ccccc2)CCN(Cc2ccccc2)CC1	inactive: 1.73%	
CCOC(=O)N1CCC(Nc2ccc(OC)cc2)CC1	inactive: -15.2%	
CC(C)c1ccc(NC2CCN(C(=O)OC(C)(C)C)CC2)cc1	inactive: -1.83%	
CN(C)c1cccc(C(=O)NCC2(N3CCCCC3)CCCCC2)c1	inactive: -4.6%	
COc1ccc(CN(CCCl)CCCl)cc1Cl	inactive: 6.36%	
COc1cc(OC)c(C(=O)NCC2(N(C)C)CCCCC2)cc1OC	inactive: -6.29%	
O=C(OC1CN2CCC1CC2)c1ccc([N+](=O)[O-])cc1 (stereo not drawn)	inactive: 4.94%	
COc1ccc2c(c1O)-c1c(O)c(OC)cc3c1[C@H](C2)[N+](C)(C)CC3.O=[N+]([O-])c1cc([N+](=O)[O-])c([O-])c([N+](=O)[O-])c1[O-]	inactive: -7.6%	
CCCOc1ccc(C(=O)NCC2(N(C)C)CCCCC2)cc1OC	inactive: -0.337%	
O=C(NCC1(N2CCOCC2)CCCCC1)c1ccccc1Br	inactive: 18.1% [at 76.3 µM]	
CCCCOc1ccccc1C(=O)NCC1(N2CCOCC2)CCCCC1	inactive: 1.5% [at 76.3 µM]	
N#CC1(Nc2ccccc2)CCN(CCc2ccccc2)CC1	inactive: 7.46%	
CCOc1ccc(C(=O)NCC2(N3CCOCC3)CCCCC2)cc1	inactive: -11% [at 76.3 µM]	
O=C(NCC1(N2CCCCC2)CCCCC1)c1cccc([N+](=O)[O-])c1	inactive: 9.22%	
O=[N+]([O-])c1cc([N+](=O)[O-])c(NCC2CCS(=O)(=O)C2)c([N+](=O)[O-])c1 (stereo not drawn)	inactive: 3.7%	
CCCOc1cccc(C(=O)NCC2(N3CCOCC3)CCCCC2)c1	inactive: 13.8% [at 76.3 µM]	
O=C(NCC1(N2CCCCC2)CCCCC1)c1cccc(C(F)(F)F)c1	inactive: -0.465%	
COc1cc(C(=O)NCC2(N3CCCCC3)CCCCC2)ccc1OC(F)F	inactive: 14.1% [at 76.3 µM]	
O=C(NCC1(N2CCOCC2)CCCCC1)c1cc(=O)[nH]c2ccccc12	inactive: 5.86%	
CN1CCN(CCOC(=O)C(O)(c2ccccc2)c2ccccc2)CC1	inactive: 5.89%	
COc1ccc(NC2CCN(C(=O)OC(C)(C)C)CC2)cc1	inactive: -17.1%	
